Apparent affinities of Ab-14 variants for a coronavirus HR2 peptide

The measurements come from Li et al. 2023 (doi:10.1038/s41467-023-39022-2) through the FLAb antibody collection.

Antigen: PDVDLGDISGINAS, a 14-residue peptide of the SARS-CoV-2 spike HR2 region.

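The variants were designed computationally from a first round of random CDR variants and then made and measured. Group labels follow the data file (Ctrl: baseline library sampled from a position-specific scoring matrix, with some repeated check sequences; GP: Gaussian process model; GPLM: also part of the Gaussian process libraries; HC: hill climbing; Gen: genetic algorithm; a sequence that several methods proposed may carry one label only). AlphaSeq pools MATa yeast showing the antibodies with MATalpha yeast showing the peptide. Binding brings cells together so that they mate, and sequencing counts the barcode pairs among the diploids. Read counts were normalised to the haploid input and turned into Kd by a linear fit to BCL2-family pairs of known affinity, for each replicate. The assay was run in six technical replicates.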

Parent: Ab-14, a human scFv built as VH, three GGGGS repeats, VL. Only the CDRs of the heavy chain vary.
VH: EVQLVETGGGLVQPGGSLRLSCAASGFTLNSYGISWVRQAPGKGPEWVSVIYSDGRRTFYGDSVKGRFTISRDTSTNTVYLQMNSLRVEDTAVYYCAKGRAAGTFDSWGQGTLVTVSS
VL: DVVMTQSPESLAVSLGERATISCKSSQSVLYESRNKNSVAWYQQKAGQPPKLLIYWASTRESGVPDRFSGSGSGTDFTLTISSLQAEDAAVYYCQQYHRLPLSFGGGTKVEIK

Positions count from residue 1 of the parent VH; T28D puts D in place of T. Numbers give log10(Kd / nM), so 0 is 1 nM and 3 is 1 µM. Smaller is tighter. Where no diploid with the target was found in that replicate, the entry reads "n.d.": below detection, most likely a poor binder, though not proof of it. The authors averaged sequences with at least three values out of six and counted those with two or fewer as poor binders. The range of this assay differs from that of the first round, and the authors advise against merging the two. Some sequences occur more than once in the pool; their replicates are listed entry by entry, parted by semicolons. Three control strains display no target. For all heavy chain designs, 1% of the pairings with them gave a signal, with a median of 2.08 and one signal in twenty below 0.84, so weak values seen in few replicates may be background. For each scFv, signals with the empty controls are counted beside the result, with their mean in brackets.

changes,group,log10 Kd (nM) by replicate,signal with controls
T28D+N30G+S53R,Ctrl,n.d. n.d. n.d. n.d. n.d. n.d.,0 of 18
L29P+G61K,Ctrl,n.d. n.d. n.d. n.d. n.d. n.d.,0 of 18
T28H+G61H+S63A,Ctrl,n.d. n.d. n.d. n.d. n.d. n.d.,0 of 18
T28N+S63D+G99R+G103L,Ctrl,n.d. n.d. n.d. n.d. n.d. n.d.,0 of 18
T28D+R56I+V64F+R100Q+G103S,Ctrl,n.d. n.d. n.d. n.d. n.d. n.d.,1 of 18 (2.14)
Y60M+G61S,Ctrl,0.88 1.49 1.19 2.10 2.01 2.01,0 of 18
G61N+S63K,Ctrl,n.d. 1.94 n.d. 3.39 1.69 n.d.,0 of 18
T28A+S35T+S53A+K65A+A102R,Ctrl,n.d. n.d. n.d. n.d. n.d. n.d.,0 of 18
L29I+R100Q+A102K+D106V+S107T,Ctrl,n.d. n.d. n.d. n.d. n.d. n.d.,0 of 18
F59Q+A102T,Ctrl,n.d. n.d. n.d. n.d. n.d. n.d.,1 of 18 (1.24)
R56E+G61A+G103A,Ctrl,n.d. n.d. n.d. n.d. n.d. n.d.,0 of 18
T28P+R100W,Ctrl,n.d. n.d. n.d. n.d. n.d. 2.14,0 of 18
T28E+G61A,Ctrl+GPLM_Gen,0.63 0.36 0.25 0.51 0.38 0.43; 0.69 0.25 0.25 0.10 0.49 0.49,3 of 36 (2.82)
N30R+I51D+R57K+K65R+T104Q+F105S,Ctrl,n.d. n.d. n.d. n.d. n.d. n.d.,1 of 18 (1.58)
G61I+R100K+D106I,Ctrl,n.d. n.d. n.d. n.d. n.d. n.d.,1 of 18 (0.87)
L29M+R56E+S63R+G99R,Ctrl,n.d. 0.46 n.d. n.d. n.d. n.d.,0 of 18
F27Y+T28S+S31E,Ctrl,n.d. n.d. n.d. n.d. n.d. n.d.,2 of 18 (1.14)
F27E+N30R+Y60I+G61S,Ctrl,n.d. 2.90 n.d. n.d. 0.54 n.d.,0 of 18
R100P+A101H+A102T+F105E,Ctrl,n.d. n.d. n.d. n.d. n.d. n.d.,0 of 18
S31D+A101N,Ctrl+GPLM_Gen,2.36 0.89 1.49 1.08 1.23 1.19; 1.43 0.68 0.09 0.33 0.70 0.99,0 of 36
S31E+R56L+F59W,Ctrl,0.71 0.31 0.35 0.00 0.15 1.11,0 of 18
N30K+S31E+K65N+G103F+F105K,Ctrl,n.d. n.d. n.d. n.d. n.d. n.d.,0 of 18
F105K+D106H,Ctrl,n.d. n.d. n.d. n.d. n.d. n.d.,0 of 18
G26H+A101Y,Ctrl,n.d. 1.75 n.d. n.d. n.d. 2.44,1 of 18 (2.14)
T28P+S53A,Ctrl,1.12 0.52 0.30 0.35 0.25 1.38,1 of 18 (2.88)
T28E+S53A+A101N+S107V,Ctrl,-0.25 -0.17 -0.22 -0.26 -0.40 0.04,1 of 18 (2.02)
T28D+N30K+S53A+G99C+A102R,Ctrl,n.d. n.d. n.d. n.d. n.d. n.d.,0 of 18
G26K+A102H+T104Q+D106E,Ctrl,n.d. n.d. n.d. n.d. n.d. n.d.,0 of 18
F59Y+R100M+S107Q,Ctrl,-0.59 1.08 -0.13 -0.29 0.06 0.06,0 of 18
I51D+T104M,Ctrl,n.d. n.d. n.d. n.d. n.d. n.d.,0 of 18
S63E+R100Q,Ctrl,1.46 n.d. n.d. n.d. 2.73 1.49,0 of 18
G61N+R100Q+A102K+S107G,Ctrl,n.d. 0.92 0.61 1.12 1.66 2.19,0 of 18
G61I+A101N,Ctrl+GPLM_HC,n.d. n.d. n.d. n.d. n.d. n.d.; n.d. 2.81 1.82 n.d. n.d. n.d.,1 of 36 (1.71)
T28E+S53A+A101M,Ctrl+GP_Gen,-0.14 -0.02 -0.19 0.08 -0.36 0.29; 0.65 0.44 0.06 0.13 0.43 0.38,2 of 36 (2.28)
F105G,Ctrl,n.d. 2.69 n.d. n.d. n.d. n.d.,0 of 18

The opening 5 entries, copied out:

changes,group,log10 Kd (nM) by replicate,signal with controls
T28D+N30G+S53R,Ctrl,n.d. n.d. n.d. n.d. n.d. n.d.,0 of 18
L29P+G61K,Ctrl,n.d. n.d. n.d. n.d. n.d. n.d.,0 of 18
T28H+G61H+S63A,Ctrl,n.d. n.d. n.d. n.d. n.d. n.d.,0 of 18
T28N+S63D+G99R+G103L,Ctrl,n.d. n.d. n.d. n.d. n.d. n.d.,0 of 18
T28D+R56I+V64F+R100Q+G103S,Ctrl,n.d. n.d. n.d. n.d. n.d. n.d.,1 of 18 (2.14)